PMC5529658, “Antiproliferative and Antibacterial Activities of Cirsium scabrum from Tunisia” (Evidence-based Complementary and Alternative Medicine : eCAM, 2017)

Tested on: Streptococcus agalactiae T53A4
Assay: Antimicrobial assay (MIC, agar dilution)
Assay type: cell-based
Settings: gentamicin
Description: The antimicrobial activity of crude extract and partitions was evaluated against 36 pathogenic microorganisms (22 Gram-positive bacteria, 13 Gram-negative bacteria, and 1 yeast) according to Mahamodo et al.. The 36 microorganisms were grown overnight at 37°C on sloping Mueller-Hinton (MH) agar medium. Briefly, the bacteria were diluted with Ringer's Cysteine (RC) solution to obtain 10^6 bacteria/ml. In Petri dishes, 19 ml MH 2 agar was supplemented with 1 ml of stock solution of crude extract or partitions (12.5 mg/ml to 0.39 mg/ml) or antibiotics (gentamicin, vancomycin, and amoxicillin) (28 mg/ml to 6·10^−3 mg/ml), giving final concentrations from 625 to 19.5 µg/ml for the extracts and 64 to 0.03 µg/ml for antibiotics. Inocula of 10^4 colony forming units (CFU) were spotted ultimately with a multipoint inoculator (Steers Replicator).

**Q.** For `CNC(C)C1CCC(N)C(OC2C(N)CC(N)C(OC3OCC(C)(O)C(NC)C3O)C2O)O1` (stereo not shown) [Gent, gentamicin], which “Reference antibiotics MIC values” is on record?
**A.** R (R: >8)
